Values quoted from earlier work, collected in the PKSmart pharmacokinetics tables (Seal et al. 2025).

Columns and labels:
[1] = Lombardo et al. 2013, J Clin Pharmacol 53:178, doi 10.1177/0091270012440282; details: for Vd / clearance: in vivo, iv; for fraction unbound: plasma
[2] = Lombardo, Berellini, Obach 2018, Drug Metab Dispos 46:1466, doi 10.1124/dmd.118.082966; details: human; for MRT / clearance / Vd / half-life: in vivo, iv; for fraction unbound: plasma
[3] = not given per row; by the article one of three: Lombardo et al. 2013, J Clin Pharmacol 53:178, doi 10.1177/0091270012440282; 'New Drugs at FDA', novel drug approvals for 2021 and 2022 (the article's reference 43); Yap, Li, Chen 2006, J Mol Graph Model 24:383, doi 10.1016; details: human; in vivo

CC(C)(C)NC(=O)C1CC[C@H]2[C@@H]3CC[C@H]4NC(=O)C=C[C@]4(C)[C@H]3CC[C@]12C (some centres not stated)
Vd ([1]; dog): 0.36 L/kg | clearance ([1]; dog): 2.1 mL/min/kg

Nc1ncn([C@H]2C[C@H](O)[C@@H](CO)O2)c(=O)n1
fraction unbound ([1]; dog): 1 | fraction unbound ([1]; rat): 1

Cn1nnc2c(C(N)=O)ncn2c1=O
MRT [2]: 2.3 h | clearance [2]: 3.6 mL/min/kg

COCCc1ccc(OCC(O)CNC(C)C)cc1 (configuration not stated)
Vd ([1]; dog): 3.1 L/kg | clearance ([1]; dog): 32.8 mL/min/kg

COc1ccc(CCO[C@@H]2CCCC[C@H]2N2CC[C@@H](O)C2)cc1OC
MRT [2]: 3 h | Vd [2]: 1.8 L/kg | clearance [2]: 8.29 mL/min/kg | half-life [2]: 3.13 h

CNC(=O)c1c(I)c(NC(C)=O)c(I)c(C(=O)O)c1I
fraction unbound [2]: 0.98

COc1ccc([C@@H]2Sc3ccccc3N(CCN(C)C)C(=O)C2OC(C)=O)cc1 (some centres not stated)
clearance [2]: 13 mL/min/kg | half-life [2]: 5.6 h

CN[C@@H]1[C@@H](O)[C@@H](O[C@@H]2[C@@H](O)[C@H](O[C@H]3O[C@H]([C@@H](C)N)CC[C@H]3N)[C@@H](N)C[C@H]2N)OC[C@]1(C)O
MRT [2]: 5.5 h | Vd [2]: 0.33 L/kg | clearance [2]: 1 mL/min/kg | half-life [2]: 4.7 h

Nc1nc(-n2cc(C(=O)O)c(=O)c3cc(F)c(N4CC(O)C4)c(Cl)c32)c(F)cc1F
fraction unbound [2]: 0.16

CC=CC1=C(C(=O)O)N2C(=O)C(NC(=O)C(N)c3ccc(O)cc3)[C@H]2SC1 (some centres not stated)
fraction unbound [2]: 0.59

COC(=O)C1[C@@H](O)CC[C@H]2CN3CCc4c([nH]c5ccccc45)[C@@H]3C[C@@H]12 (some centres not stated)
fraction unbound [2]: 0.2

O=C(c1ccccc1)c1ccc2n1CCC2C(=O)O (configuration not stated)
MRT [2]: 5.2 h | half-life [2]: 5.1 h

CC1(C)S[C@@H]2C(NC(=O)C(C(=O)O)c3ccccc3)C(=O)N2C1C(=O)O (some centres not stated)
fraction unbound [2]: 0.52

CN1CCC[C@@H]1Cc1c[nH]c2ccc(CCS(=O)(=O)c3ccccc3)cc12
Vd [2]: 1.6 L/kg | clearance [2]: 5.3 mL/min/kg | half-life [2]: 4.2 h | fraction unbound [2]: 0.15

COC(=O)C1=C(C)NC(C)=C(C(=O)OCC(C)C)C1c1ccccc1[N+](=O)[O-] (configuration not stated)
fraction unbound ([1]; rat): 0.009

COc1ccc2c3c1O[C@H]1[C@@H](O)C=C[C@H]4[C@@H](C2)N(C)CC[C@@]341
Vd ([1]; rat): 5.1 L/kg | clearance ([1]; rat): 103 mL/min/kg

CC(NC(=O)N(CCCl)N=O)C(N)=O (configuration not stated)
Vd [3]: 0.76 L/kg | clearance [3]: 9 mL/min/kg | Vd ([1]; dog): 0.81 L/kg

NC(=O)c1ncn([C@@H]2O[C@H](CO)[C@@H](O)[C@H]2O)n1
fraction unbound ([1]; rat): 0.95

CNCC[C@@H](Oc1ccccc1C)c1ccccc1
Vd ([1]; dog): 1.4 L/kg | clearance ([1]; dog): 7.4 mL/min/kg

Cc1cn([C@H]2C[C@H](N=[N+]=[N-])[C@@H](CO)O2)c(=O)[nH]c1=O
Vd ([1]; rat): 0.86 L/kg | clearance ([1]; rat): 25.1 mL/min/kg | fraction unbound ([1]; rat): 0.687

Nc1ccn([C@@H]2O[C@H](CO)[C@@H](O)[C@@H]2O)c(=O)n1
fraction unbound [2]: 0.87

S=c1[nH]cnc2[nH]cnc12
clearance [2]: 15 mL/min/kg | fraction unbound [2]: 0.85

CN(C)c1ccc(O)c2c1C[C@@H]1C[C@@H]3[C@@H](N(C)C)C(O)=C(C(N)=O)C(=O)[C@@]3(O)C(O)=C1C2=O
clearance [3]: 0.89 mL/min/kg

C[N+]1(CC2CC2)CC[C@]23c4c5ccc([O-])c4OC2C(=O)CC[C@@]3(O)[C@H]1C5 (some centres not stated)
Vd [2]: 2.6 L/kg | clearance [2]: 22 mL/min/kg | half-life [2]: 2.5 h

O=C(NCC1CCCCN1)c1cc(OCC(F)(F)F)ccc1OCC(F)(F)F (configuration not stated)
fraction unbound ([1]; rat): 0.41

O=C(CCCCCCC(O)=NO)Nc1ccccc1
Vd ([1]; dog): 0.6 L/kg | clearance ([1]; dog): 54.7 mL/min/kg | fraction unbound ([1]; rat): 0.61 | clearance [2]: 28 mL/min/kg | half-life [2]: 0.76 h | fraction unbound [2]: 0.29

C[C@]12C=CC(=O)C=C1CC[C@@H]1[C@@H]2[C@@H](O)C[C@@]2(C)[C@H]1CC[C@]2(O)C(=O)CO
MRT [2]: 4.8 h | Vd [2]: 0.86 L/kg | clearance [2]: 2.9 mL/min/kg | half-life [2]: 3.4 h

NCCCCC(NC(CCc1ccccc1)C(=O)O)C(=O)N1CCCC1C(=O)O (configuration not stated)
MRT [2]: 12 h | Vd [2]: 0.89 L/kg | half-life [2]: 42 h

Cn1c(=O)c2[nH]cnc2n(C)c1=O
clearance [3]: 0.73 mL/min/kg

CC(C)C[C@H](NC(=O)C(Cc1ccccc1)NC(=O)c1cnccn1)B(O)O (some centres not stated)
MRT [2]: 8.8 h | clearance [2]: 19 mL/min/kg | half-life [2]: 18 h | fraction unbound [2]: 0.17

S=c1nc[nH]c2nc[nH]c12
Vd ([1]; monkey): 0.9 L/kg | clearance ([1]; monkey): 15.2 mL/min/kg

O=P(O)(O)C(O)(Cc1cccnc1)P(=O)(O)O
clearance [2]: 1.5 mL/min/kg | half-life [2]: 200 h

Cc1ccc(C(=O)N(CCCN)C(c2nc3snc(C)c3c(=O)n2Cc2ccccc2)C(C)C)cc1 (configuration not stated)
MRT [2]: 19 h | Vd [2]: 6.74 L/kg | clearance [2]: 5.83 mL/min/kg | half-life [2]: 16.3 h

O=c1[nH]cc(F)c(=O)[nH]1
MRT [2]: 0.15 h | half-life [2]: 0.12 h

CN(C)c1ccc(O)c2c1C[C@H]1C[C@H]3[C@H](N(C)C)C(O)=C(C(N)=O)C(=O)[C@@]3(O)C(O)=C1C2=O
MRT [2]: 22 h | Vd [2]: 1.6 L/kg | clearance [2]: 1.2 mL/min/kg | half-life [2]: 17 h

OC[C@@H]1O[C@@H](n2cnc3c2N=CNC[C@H]3O)C[C@H]1O
fraction unbound [2]: 0.96

CC(CN1c2ccccc2Sc2ccccc21)N(C)C (configuration not stated)
MRT [2]: 17 h | half-life [2]: 14 h

CC(C)NCC(O)c1ccc(NS(C)(=O)=O)cc1 (configuration not stated)
clearance ([1]; dog): 14.7 mL/min/kg | MRT [2]: 11 h | Vd [2]: 1.3 L/kg | half-life [2]: 6.3 h

Nc1ncn([C@@H]2O[C@H](CO)[C@@H](O)[C@H]2O)c(=O)n1
MRT [2]: 0.22 h | Vd [2]: 0.47 L/kg | clearance [2]: 35 mL/min/kg | half-life [2]: 0.36 h

CCN(CC)CCCC(C)Nc1c2ccc(Cl)cc2nc2ccc(OC)cc12 (configuration not stated)
fraction unbound [2]: 0.13

CN1CCc2cccc3c2[C@H]1Cc1ccc(O)c(O)c1-3
Vd ([1]; rat): 2.7 L/kg | clearance ([1]; rat): 196 mL/min/kg

Nc1ccn([C@H]2CC[C@@H](CO)O2)c(=O)n1
MRT [2]: 1.6 h | Vd [2]: 0.54 L/kg | clearance [2]: 5.6 mL/min/kg | half-life [2]: 1.2 h

CCCc1nc(C)c2c(=O)[nH]c(-c3cc(S(=O)(=O)N4CCN(CC)CC4)ccc3OCC)nn12
MRT [2]: 3.8 h | half-life [2]: 4.5 h

CC[C@]1(O)C(=O)OCc2c1cc1n(c2=O)Cc2cc3c(CN(C)C)c(O)ccc3nc2-1
clearance [3]: 11.8 mL/min/kg

O=c1c(O)c(-c2ccc(O)c(O)c2)oc2cc(O)cc(O)c12
fraction unbound ([1]; rat): 0.02

CC[C@@]1(O)C(=O)OCc2c1cc1n(c2=O)Cc2cc3c(CN(C)C)c(O)ccc3nc2-1
Vd ([1]; dog): 1.7 L/kg | clearance ([1]; dog): 17.6 mL/min/kg | Vd ([1]; monkey): 7.38 L/kg | clearance ([1]; monkey): 96.1 mL/min/kg | Vd ([1]; rat): 3.08 L/kg | clearance ([1]; rat): 34.4 mL/min/kg | MRT [2]: 2.3 h | half-life [2]: 2.3 h

Nc1nc(Cl)nc2c1ncn2[C@H]1C[C@H](O)[C@@H](CO)O1
Vd ([1]; rat): 4.5 L/kg | clearance ([1]; rat): 25.3 mL/min/kg

CC(C)NCC(O)COc1ccc(COCCOC(C)C)cc1 (configuration not stated)
fraction unbound ([1]; dog): 0.72

CCN(CC)CCNC(=O)c1ccc(NS(C)(=O)=O)cc1
fraction unbound ([1]; dog): 0.95 | fraction unbound ([1]; rat): 0.91

NCCCNCCSP(=O)(O)O
MRT [2]: 0.05 h | Vd [2]: 0.09 L/kg | clearance [2]: 30.6 mL/min/kg | half-life [2]: 0.15 h

S=c1[nH]cnc2nc[nH]c12
clearance [3]: 11 mL/min/kg

C[C@@H](Oc1cc(-c2cnn(C3CCNCC3)c2)cnc1N)c1c(Cl)ccc(F)c1Cl
MRT [2]: 37.9 h | Vd [2]: 22.1 L/kg | clearance [2]: 9.75 mL/min/kg | half-life [2]: 38.9 h

OCCN(CCO)c1nc(N2CCCCC2)c2nc(N(CCO)CCO)nc(N3CCCCC3)c2n1
fraction unbound [2]: 0.009

Nc1nc2[nH]cc(CCc3ccc(C(=O)NC(CCC(=O)O)C(=O)O)cc3)c2c(=O)[nH]1 (configuration not stated)
fraction unbound [2]: 0.19

NC[C@H]1O[C@H](O[C@H]2[C@H](O)[C@@H](O[C@H]3O[C@H](CO)[C@@H](O)[C@H](N)[C@H]3O)[C@H](N)C[C@@H]2N)[C@H](O)[C@@H](O)[C@@H]1O
fraction unbound [2]: 0.99

C[C@]12C[C@]3(O)O[C@@H](O1)[C@@]1(COC(=O)c4ccccc4)[C@@H]3C[C@]12O[C@@H]1O[C@H](CO)[C@@H](O)[C@H](O)[C@H]1O
MRT [2]: 1.83 h | Vd [2]: 0.22 L/kg | clearance [2]: 2.05 mL/min/kg | half-life [2]: 1.49 h

CN1C[C@@H]2c3ccccc3Oc3ccc(Cl)cc3[C@H]2C1
fraction unbound [2]: 0.05

CC1COc2c(N3CCN(C)CC3)c(F)cc3c(=O)c(C(=O)O)cn1c23 (configuration not stated)
fraction unbound ([1]; rat): 0.64

CC[C@H]1OC(=O)C(C)[C@@H](O[C@H]2C[C@@](C)(OC)[C@@H](O)[C@H](C)O2)[C@H](C)[C@@H](O[C@@H]2O[C@H](C)C[C@H](N(C)C)[C@H]2O)[C@](C)(O)CC(C)C(=O)C(C)[C@@H](O)[C@]1(C)O (some centres not stated)
half-life [2]: 2 h

CCn1cc(C(=O)O)c(=O)c2cc(F)c(N3CCNCC3)nc21
fraction unbound ([1]; rat): 0.65

N#Cc1ccc(C(c2ccc(C#N)cc2)n2cncn2)cc1
Vd ([1]; rat): 2.02 L/kg | clearance ([1]; rat): 0.66 mL/min/kg | MRT [2]: 59 h | half-life [2]: 45 h

CN(Cc1cnc2nc(N)nc(N)c2n1)c1ccc(C(=O)NC(CCC(=O)O)C(=O)O)cc1 (configuration not stated)
Vd ([1]; dog): 0.54 L/kg | clearance ([1]; dog): 0.587 mL/min/kg | Vd ([1]; rat): 0.16 L/kg | clearance ([1]; rat): 10.5 mL/min/kg

CC(C)NCC(O)COc1cccc2[nH]ccc12 (configuration not stated)
fraction unbound ([1]; rat): 0.57

CNC1(c2ccccc2Cl)CCCCC1=O (configuration not stated)
fraction unbound ([1]; rat): 0.53

C[C@@H](CN1CC(=O)NC(=O)C1)N1CC(=O)NC(=O)C1
fraction unbound ([1]; dog): 0.94

OC(CCN1CCCCC1)(c1ccccc1)C1CC2C=CC1C2 (configuration not stated)
Vd ([1]; rat): 12 L/kg | clearance ([1]; rat): 68 mL/min/kg | MRT [2]: 17 h | Vd [2]: 12 L/kg | half-life [2]: 24 h
